# Measured values from patent US11110158B2, “Prostate-associated antigens and vaccine-based immunotherapy regimens” (Pfizer Inc., priority 2012, dated 2021).
# Tested on: PC3
# Test: Antibody-dependent cell-mediated cytotoxicity, chromium 51 release, human PBMC effectors
# Assay type: cell-based
# Conditions: target PC3 (PSMA negative); plasma 1:50 or control mAb
# Experimental: An Indian rhesus macaque was immunized with a nucleic acid encoding a human PSMA modified antigen delivered by adenovirus (1e11 V.P. injected intramuscularly) followed by 2 PMED immunizations (8 actuations/immunization, 4 actuations per each right and left side of the lower abdomen) with 8 and 6 week intervals respectively. The animal also received intradermal injections of 3 mg of CpG (PF-03512676) in proximity to each inguinal draining lymph node at the time of the second PMED immunization. The antibody dependent cell-mediated cytotoxicity was determined from the plasma collected from the blood before any immunizations (pre-immune plasma) and 8 days after the last PMED immunization (immune plasma).
# Antibody-dependent cell-mediated cytotoxicity was determined using the standard chromium 51 release assay. Human prostate cancer cell lines LNCaP and PC3 were used as target cells. Freshly isolated human PBMC cells were used as effector cells. […] Specific lysis was calculated as follows: Percent release=(ER-SR)/(MR-SR)×100 where ER (effectors+target cells release) was experimental release, SR (target cells alone incubated with media) was spontaneous release, and MR (target cells alone incubated with 2N HCl) was maximum release. Percent specific lysis was calculated by subtracting irrelevant target (PC3) release from antigen specific target (LNCaP) release.
substance,measurement,value
"Herceptin: monoclonal antibody against HER-2, positive control",Percent specific lysis at E:T of 30:1,8.04%
